Assay results from PMC2807033 (2009).

Target: T1, Rep helicase (E. coli), wild type (E. coli, UniProt P09980 1-673)
T1 chain: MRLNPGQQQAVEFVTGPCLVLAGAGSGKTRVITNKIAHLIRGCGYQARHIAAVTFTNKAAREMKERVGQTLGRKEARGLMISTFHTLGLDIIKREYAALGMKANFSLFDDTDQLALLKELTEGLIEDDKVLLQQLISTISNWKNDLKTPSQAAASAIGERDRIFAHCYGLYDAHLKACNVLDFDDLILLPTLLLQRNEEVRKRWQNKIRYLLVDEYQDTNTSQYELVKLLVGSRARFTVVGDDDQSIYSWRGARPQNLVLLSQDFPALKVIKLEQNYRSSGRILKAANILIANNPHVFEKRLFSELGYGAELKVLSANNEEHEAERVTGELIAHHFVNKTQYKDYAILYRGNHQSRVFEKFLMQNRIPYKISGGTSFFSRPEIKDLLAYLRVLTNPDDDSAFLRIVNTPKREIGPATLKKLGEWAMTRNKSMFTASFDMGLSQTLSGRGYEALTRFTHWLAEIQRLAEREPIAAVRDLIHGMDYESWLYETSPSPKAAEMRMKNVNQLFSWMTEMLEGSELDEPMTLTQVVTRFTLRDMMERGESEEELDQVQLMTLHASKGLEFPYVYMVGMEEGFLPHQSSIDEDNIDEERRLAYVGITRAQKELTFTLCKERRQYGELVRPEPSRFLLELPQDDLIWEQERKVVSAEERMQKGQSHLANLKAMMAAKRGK
Assay: SPR

Kd: 0.093 µM
B1: E. coli replicative helicase DnaB, purified (enzyme)
chain: MAGNKPFNKQQAEPRERDPQVAGLKVPPHSIEAEQSVLGGLMLDNERWDDVAERVVADDFYTRPHRHIFTEMARLQESGSPIDLITLAESLERQGQLDSVGGFAYLAELSKNTPSAANISAYADIVRERAVVREMISVANEIAEAGFDPQGRTSEDLLDLAESRVFKIAESRANKDEGPKNIADVLDATVARIEQLFQQPHDGVTGVNTGYDDLNKKTAGLQPSDLIIVAARPSMGKTTFAMNLVENAAMLQDKPVLIFSLEMPSEQIMMRSLASLSRVDQTKIRTGQLDDEDWARISGTMGILLEKRNIYIDDSSGLTPTEVRSRARRIAREHGGIGLIMIDYLQLMRVPALSDNRTLEIAEISRSLKALAKELNVPVVALSQLNRSLEQRADKRPVNSDLRESGSIEQDADLIMFIYRDEVYHENSDLKGIAEIIIGKQRNGPIGTVRLTFNGQWSRFDNYAGPQYDDE
